Assay results published in published antibiotic growth screens (doi:10.1038/s41589-023-01349-8).
The other results are listed elsewhere or left out.

system: A. baumannii ATCC 17978; assay: relative growth (fraction of control); higher = less inhibition; settings: 50 µM

First: Cc1ccc(C2(CN)CCCCC2)cc1
Second: NC1(c2ccccc2F)CCCC1
The relative growth of the first is lower: 0.718 for the first, 0.999 for the second.

Compared with `C[N+]1(C)C2CCC1CC(OC(=O)C(CO)c1ccccc1)C2.O=[N+]([O-])[O-]` (centres undefined), `C[N+]1(C)C2CC(OC(=O)[C@@H](CO)c3ccccc3)CC1C1OC12.[Br-]` (some centres undefined) is higher in relative growth: 1 for the first, 1.2 for the second.

Going from `C[C@H]1C(=O)O[C@@H]2CCN3CC=C(COC(=O)[C@](C)(O)[C@]1(C)O)[C@H]23` to `C[C@@]12C(=O)OC(=O)[C@]1(C)C1CCC2O1`, the relative growth falls from 0.931 to 0.928.

Going from `CC(C)=CCCC1(C)C=Cc2c(O)c3c(c(CC=C(C)C)c2O1)OC12C(=CC4CC1C(C)(C)OC2(C/C=C(/C)C(=O)O)C4O)C3=O` (centres undefined) to `CCC(C)C(=O)O[C@@H]1C[C@@]2(C)[C@H](c3ccoc3)OC(=O)CC23OC2(C)OC34[C@H](OC(=O)C(C)C)[C@@]3(O)[C@@H](OC(=O)C5(C)OC5C)[C@@]5(C)C[C@]3(O)[C@@](C)([C@H]5CC(=O)OC)C14O2` (some centres undefined), the relative growth rises from 0.96 to 1.05.

Compared with `O=S1(=O)COC2(CNC2)CN1`, `CN1CC2(CNC2)OCCS1(=O)=O` is lower in relative growth: 1.08 for the first, 0.976 for the second.

Compared with `ClC=C(Cl)Cl`, `Oc1c(Cl)c(Cl)c(Cl)c(Cl)c1Cl` is lower in relative growth: 0.975 for the first, 0.789 for the second.

First: CCCC12CNCC(C)(CNC1)C2=O
Second: O=C1NCC2(CNC2)O1
The relative growth of the first is higher: 1.05 for the first, 0.974 for the second.

Going from `CCCCC1C(=O)NC(=S)NC1=O` to `C=CCN1C(=O)NC(=O)/C(=C/c2ccco2)C1=O`, the relative growth rises from 0.8 to 0.871.

First: Cc1cc([N+](=O)[O-])cnc1N1CCNCC1
Second: CCn1cc2nc(N3CCNCC3)[nH]cc-2c1=O
The relative growth of the first is lower: 0.969 for the first, 1.1 for the second.

First: CO[C@]12C[C@@H](COC(=O)c3cncc(Br)c3)CN(C)[C@@H]1Cc1cn(C)c3cccc2c13
Second: CCN(C(C)=O)c1cccc(-c2ccnc3c(C#N)cnn23)c1
The relative growth of the first is lower: 1.09 for the first, 1.11 for the second.

Going from `O=C([O-])CCCO.[Na+]` to `CC(C)C[C@H](CN)CC(=O)O`, the relative growth rises from 0.971 to 1.04.

Going from `CC[C@@H](CN)c1ccccc1` to `COC(=O)C(c1ccccc1)C1CCCCN1.Cl` (centres undefined), the relative growth rises from 1.05 to 1.29.

First: Cn1c(CCN)nc2ccccc21
Second: NCCc1c[nH]c2ccccc12
The relative growth of the first is higher: 0.988 for the first, 0.912 for the second.

Compared with `COc1cc2c(cc1OC)[C@@H]1C(=O)c3ccc4oc(C(C)C)cc4c3O[C@@H]1CO2`, `COc1cc([C@@H]2c3cc4c(cc3[C@H](O)[C@H]3COC(=O)[C@H]23)OCO4)cc(OC)c1OC` is lower in relative growth: 0.904 for the first, 0.901 for the second.

Going from `COc1cc2c(c(OC)c1OC)-c1ccc(O)c(=O)cc1[C@@H](NC(C)=O)CC2` to `COc1cc2c(cc1OC)C(C)NCC2` (centres undefined), the relative growth falls from 0.995 to 0.894.

First: COc1cc2c(cc1-c1cc3cc4ccoc4cc3oc1=O)OCO2
Second: CCn1cc(C(=O)[O-])c(=O)c2cc3c(cc21)OCO3.[K+]
The relative growth of the first is higher: 0.851 for the first, 0.163 for the second.

Going from `OCC(Br)(Br)Br` to `Cl.NCCc1c[nH]c2ccc(O)cc12`, the relative growth rises from 0.91 to 1.02.

First: CN(C)C(=S)SSC(=S)N(C)C
Second: CCN(C)C(=O)Oc1cccc([C@H](C)N(C)C)c1.O=C(O)[C@H](O)[C@@H](O)C(=O)O
The relative growth of the first is lower: 0.142 for the first, 1.09 for the second.

Going from `CCC(C)(C)O` to `CC(C)(C)CC(=O)N1C[C@H]2C[C@@H]1CN2`, the relative growth rises from 0.975 to 1.

First: CC1[C@H](C)OC(=O)CC(O)CC(O)CC(O)CCC(O)C(O)C[C@]2(O)CC(O)C(C(=O)O)C(CC(OC3O[C@H](C)[C@@H](O)[C@H](N)[C@@H]3O)/C=C/C=C/C=C/C=C/CC/C=C/C=C/[C@H](C)[C@H]1O)O2 (some centres undefined)
Second: OC[C@H]1O[C@@H](Oc2ccc(/C=C/c3cc(O)cc(O)c3)cc2O)[C@H](O)[C@@H](O)[C@@H]1O
The relative growth of the first is lower: 1.03 for the first, 1.19 for the second.

Compared with `CC(C)(C)C(=O)C(Oc1ccc(Cl)cc1)n1cncn1` (centres undefined), `Oc1ccc(Cl)cc1` is lower in relative growth: 1.02 for the first, 0.958 for the second.

Going from `C[C@@H](N)Cc1ccco1` to `C[C@@H](N)Cc1cccc(O)c1`, the relative growth rises from 0.776 to 0.964.

Compared with `CCNC1(c2cccs2)CCCCC1=O.Cl` (centres undefined), `Cc1cccc(C)c1NC1=NCCCS1` is lower in relative growth: 1.13 for the first, 0.829 for the second.

Compared with `O=c1cccc2n1C[C@@H]1C[C@H]2CN(CCO)C1`, `C[C@@H](O)CN1C[C@H]2C[C@@H](C1)c1cccc(=O)n1C2` is higher in relative growth: 1.03 for the first, 1.12 for the second.

First: C[N+]1(C)CCCC(OC(=O)C(O)(c2ccccc2)c2ccccc2)C1.[Br-] (centres undefined)
Second: CC(C)c1c(CN(C)C(C)Cc2ccccc2)n(C)n(-c2ccccc2)c1=O (centres undefined)
The relative growth of the first is higher: 1.09 for the first, 1.07 for the second.

Going from `CN1C(=O)NC(=O)/C(=C\C=C\c2ccco2)C1=O` to `Cc1cccc(Cc2c[nH]cn2)c1C.Cl`, the relative growth falls from 0.859 to 0.846.

Compared with `CC1(C)C(C=C(Cl)Cl)C1C(=O)OCc1cccc(Oc2ccccc2)c1` (centres undefined), `COC(=O)[C@H]1CNCCN1c1ccccc1` is higher in relative growth: 0.895 for the first, 1.14 for the second.

Compared with `COc1ccc2c(c1)[nH]c1c(C)nccc12`, `CC(=O)Oc1ccc(Cl)c2cccnc12` is lower in relative growth: 0.777 for the first, 0.19 for the second.

First: CC1=C2CCC3C(CC[C@]4(C)C(=O)CCC34)[C@@]2(C)CCC1=O (some centres undefined)
Second: C[C@]12CCC3C(CC[C@H]4C[C@H](O)CC[C@]34C)C1CC[C@@H]2O (some centres undefined)
The relative growth of the first is higher: 0.99 for the first, 0.969 for the second.

Compared with `O=[N+]([O-])c1ccc([As](=O)(O)O)cc1`, `Cc1ccc(C)c(C(=O)[C@H](N)CC(C)C)c1` is higher in relative growth: 0.712 for the first, 0.919 for the second.

Compared with `O[C@H]1C2CN3CCN(C2)CC1(c1ccccc1)C3`, `c1ccc(CN2CCNCC2)nc1` is lower in relative growth: 0.944 for the first, 0.934 for the second.

Compared with `CCOC1O[C@@H]2O[C@]3(C)CC[C@H]4[C@H](C)CC[C@@H]([C@H]1C)[C@@]24OO3` (some centres undefined), `C[C@@H]1CC[C@H]2[C@@H](C)C(=O)O[C@@H]3O[C@]4(C)CC[C@@H]1[C@]32OO4` is lower in relative growth: 1.22 for the first, 0.93 for the second.

First: [N-]=[N+]=NCc1ccccc1C[C@]1(C(=O)N2CCOCC2)N=C(c2ccc(OCCCO)cc2)O[C@H]1c1ccccc1N=[N+]=[N-]
Second: [N-]=[N+]=NCc1ccccc1C[C@]1(C(=O)NCc2ccccc2)N=C(c2ccc(OCCCO)cc2)O[C@H]1c1ccccc1N=[N+]=[N-]
The relative growth of the first is lower: 0.97 for the first, 1.04 for the second.

Compared with `CCOC(OCC)P(=O)(O)CCCN`, `Br.COC(=O)C1=CCCN(C)C1` is lower in relative growth: 1.07 for the first, 1.03 for the second.

First: O=C([O-])c1ccccc1-c1c2cc(Br)c(=O)cc-2oc2[c]([Hg][OH])c([O-])c(Br)cc12.[Na+].[Na+]
Second: COc1cc2c(cc1OC)[C@@H]1CC(=O)[C@@H](CC(C)C)CN1CC2
The relative growth of the first is lower: 0.5 for the first, 1.02 for the second.

First: C[C@]12CCC3[C@@H](CC[C@@]45O[C@@H]4C(O)=C(C#N)C[C@]35C)C1CC[C@@H]2O (some centres undefined)
Second: O=C1CCC[C@H]2[C@@H]3CCCN4CCC[C@H](CN12)[C@H]34
The relative growth of the first is lower: 0.934 for the first, 0.955 for the second.

First: O=P1(NCCCl)OCCCN1CCCl (centres undefined)
Second: NC(=O)CN1CCCC1=O
The relative growth of the first is lower: 1.03 for the first, 1.3 for the second.
